One assay concerns the target Calpain. Description: Calpain enzyme assay. Particulars: read-out: Calpain; Ki by Morrison equation; pH 7.5, 5 mM CaCl2. The protocol: (§1) Purified peptide was dissolved in DMSO to a concentration of 10 mM then further diluted to 100 μM in DMSO. Stock plates were established with inhibitors at ten concentrations with top concentrations of 10 mM, 1 mM, 100 μM, or 10 μM which were then subsequently halved in DMSO down to bottom concentrations of 9.8 μM, 0.98 μM, 98 nM, or 9.8 nM respectively in DMSO. Alternatively, the stock plate was established with a top inhibitor concentration of 100 μM diluted by thirds with ten concentrations down to a bottom concentration of 65.1 nM in DMSO. Two wells contained DMSO only for controls.
Enzyme was dissolved to 25 nM in 50 mM Tris Buffer (pH 7.5), 100 mM NaCl, 1 mM EGTA, 0.015% Brij-35, and 5 mM DTT. Substrate, H-Glu(Edans)-Pro-Leu-Phe-Ala-Glu-Arg-Lys(Dabcyl)-OH, was diluted to 5 μM in buffer with enzyme. Enzyme/Buffer/Substrate solution was aliquoted 267 uL per well in one row (12 wells). […] Two controls were measured, 0 μM inhibitor and no calcium (effectively dead enzyme). […]
(§2) GraphPad Prism was used for all data analysis. […] Velocity (RFU/sec) was calculated from a straight line fit of the straight portion of the curve. […] Data was then plotted as velocity (μM/sec) vs. inhibitor concentration and analyzed using the Morrison equation that was standard in GraphPad Prism to calculate a Ki.

By UniProt entry, the sequences of proteins in these tests, tags left out. Residues count along the entry.
UniProt P07711, 114-333 limits assumed: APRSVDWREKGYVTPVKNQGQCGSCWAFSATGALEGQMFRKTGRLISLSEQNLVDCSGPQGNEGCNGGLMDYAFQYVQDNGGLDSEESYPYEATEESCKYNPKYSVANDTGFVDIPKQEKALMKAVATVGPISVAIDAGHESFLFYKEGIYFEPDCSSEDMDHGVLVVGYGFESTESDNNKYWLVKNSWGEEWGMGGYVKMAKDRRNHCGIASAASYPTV

A further assay deals with Collagen. As to the kind of experiment: Fibrosis-Sirius Red Collagen Assay. It is filed as cell-based. To be noted: read-out: Fibrosis-Sirius Red Collagen Assay.
The subject of a further assay is SMA. As to the kind of experiment: Fibrosis-SMA Elisa. Format: cell-based. Particulars: read-out: Fibrosis-SMA Elisa.
In the next assay the target is Cathepsin B (Homo sapiens, UniProt P07858). As to the kind of experiment: Cathepsin B enzyme assay. Particulars: read-out: Cat B; Ki by Morrison equation; pH 6.0, substrate Z-Phe-Arg-Amc.
The next assay deals with Cathepsin L (Homo sapiens, UniProt P07711). As to the kind of experiment: Cathepsin L enzyme assay. To be noted: read-out: Cat L; Ki by Morrison equation; pH 5.5, substrate Z-Phe-Arg-Amc. The protocol: as §1
Enzyme was dissolved to 3 nM in 50 mM Sodium Acetate Buffer (pH 5.5), 2.5 mM EGTA, 0.01% Triton X-100, and 5 mM DTT. Substrate, Z-Phe-Arg-Amc, was diluted to 50 μM in buffer. Enzyme/Buffer solution was aliquoted 267 uL per well in one row (12 wells). Using a multichannel pipette 3 μL inhibitor was taken from the stock plate and added to each well, a 1:100 dilution resulting in ten concentrations of inhibitor and two controls, 0 μM inhibitor and dead enzyme. […]
as §2

Consider `CC[C@H](C)C(NC(=O)[C@H](CC(C)C)NC(=O)OCc1ccccc1)C(=O)C(=O)NCC(=O)N[C@@H](Cc1ccc2ccccc2c1)C(=O)N(C)C` (some centres unmarked), for which the Ki at Calpain was 5.39 nM; on Cathepsin B it was 10.9 nM; at Cathepsin L, 0.2 nM. Also, the IC50 was 2900 nM in the assay on Collagen and 1100 nM with SMA.

The values are drawn from US20190085024A1, “Alpha-Ketoamide Inhibitors Of Cysteine Proteases” (Phelix Therapeutics, priority 2017, published 2019).
